Screening results as filed in PubChem.
miR-21 reporter = raises the signal of a miR-21 reporter | Potency, µM (doses to about 38.3 µM), for inactives: top-dose reporter change, positive = more light | HeLa miR-21 FLuc reporter, luciferase, 48 h | AID 2288 | 340,000 tested, under 10 active; active = well fitted rising curve with a large enough effect; inconclusive = small, poorly fitted or top-dose-only effect; inactive = no such curve, though single readings can be large or run the other way;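 also: % of control where 0% means no effect; miR-21 action dims this reporter so a rising signal means less miR-21 action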
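Compounds were titrated across several concentrations (up to approximately 40 uM) and incubated 48 hours with HeLa miR-21-FLuc reporter cells (miR-21 target sequence downstream of FLuc, endogenous miR-21). Readout was firefly luciferase luminescence after lytic detection reagent.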
Lamin A splicing = LMNA splicing modulation. HeLa LMNA splicing GFP/RFP minigene ratio, 48 h. Potency, µM (series often up to 46.1 µM), for the others: top-dose ratio change, negative = inhibition, hits mostly inhibitors. 0.01% of 200,000 active. AID 1487; active means well fitted inhibition curve with a large enough effect in the signal ratio, with a control signal flat, not every such curve was filed as active; inconclusive means small, poorly fitted or top-dose-only effect, or effect the other way, or a change in a side signal; the % refers to the signal ratio; further: potency means the concentration at half of the fitted maximal effect; on the % scale 0 is the no-effect control and ±100 the full control effect
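S3 HeLa cells stably expressing lamin A-EGFP splicing minigene plus DsRed2, 600 cells/well, 48 h compound exposure at 37C. Laser-scanning cytometry; analysed as GFP (500-530 nm)/RFP (575-640 nm) total intensity ratio; 0.5% DMSO vehicle.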
G9a block = blocks human histone lysine methyltransferase G9a; Q96KQ7; G9a H3K9 monomethylation, AlphaScreen, 2 h; Potency, µM (doses to about 102 µM), without a hit: at the highest dose activity, negative = inhibition, usual class: inhibitors; 8.8% of 350,000 active; further: potency means the concentration at half of the fitted maximal effect; on the % scale 0 is the no-effect control and ±100 the full control effect; nearly all actives have a fitted effect of over 75% in size
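Quantitative HTS format: methyltransferase activity on a biotin-tagged H3K9 peptide is measured by AlphaScreen, using a rabbit anti-monomethyl-H3K9 antibody with streptavidin donor and anti-IgG acceptor beads. Final levels are 20 nM enzyme, 500 nM peptide, 20 uM SAM; 2 h RT.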
Sfp inh = inhibitors of Bacillus subtilis Sfp phosphopantetheinyl transferase. Q9F4F7. Biochemical Sfp PPTase activity, qHTS. Potency, µM, inactives show max response, negative = inhibition, most hits filed as inhibitors. 3.5% of 310,000 active. AID 1490; active = well fitted inhibition curve with a large enough effect; inconclusive = small, poorly fitted or top-dose-only effect, or another doubt; inactive = no such curve, though single readings can be large or run the other way;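 also: the enzyme is Sfp with the accession as filed and its product quenches rhodamine fluorescence; potency is read from the fitted curve at half-maximal effect; 0% = enzyme reaction without inhibitor and -100% = no enzyme wells; top concentration of the series not given in the record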
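Step 1, compound plus 15 nM Sfp-PPTase, 15 min, room temperature. Step 2, add rhodamine-CoA (5 uM) and BHQ-2-YbbR (12.5 uM). Step 3, read 525/598 nm fluorescence at 0 and 30 min.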
ALDH1A1 block = blocks purified human ALDH1A1 activity. P00352. Purified ALDH1A1, NADH fluorescence, propionaldehyde substrate. Potency, µM (series often up to 75.3 µM), inactives show at the top dose activity, negative = inhibition, most hits filed as inhibitors. 7.3% of 220,000 active. AID 1030; active means well fitted inhibition curve with a large enough effect, not every such curve was filed as active; inconclusive means small, poorly fitted or top-dose-only effect, or another doubt; inactive means no such curve, though single readings can be large or run the other way;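 further: potency means the concentration at half of the fitted maximal effect; plate controls were no enzyme wells and a reference inhibitor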
KDM4E inh = inhibitors of human JMJD2E histone demethylase; Potency, µM (highest dose often 57.1 µM), for the others: at the top dose activity change, negative = inhibition, actives largely listed as inhibitors; JMJD2E catalytic domain, FDH-coupled NADH fluorescence (FDH is formaldehyde dehydrogenase); B2RXH2; 1.6% of 230,000 active; active means well fitted inhibition curve with a large enough effect, not every such curve was filed as active; inconclusive means small, poorly fitted or top-dose-only effect, or another doubt; inactive means no such curve, though single readings can be large or run the other way;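 further: potency means the concentration at half of the fitted maximal effect; 0% = wells with enzyme and -100% = buffer wells without enzyme; nearly all actives have a fitted effect of over 50% in size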
An asterisk follows results filed as active; u = inconclusive; x = not tested or not shown; [ ] = another dose, or the depositor's remark. The list is not random: actives were taken first. Their share in the collection is about 13%. Unless noted, the call rests on the fitted dose curve; in most records, active means well fitted curve in the direction sought with a large enough effect; inconclusive means small, poorly fitted or top-dose-only effect, or another doubt; inactive means no such curve, though single readings can be large; an effect the other way counts as inactive or inconclusive.

1	COc1cc2c(cc1OC)C(Cc1ccc(O)cc1)NCC2 (stereo not drawn)
2	COCCOC(=O)c1c(C)oc2c1cc(NS(=O)(=O)c1ccc(Cl)c(C)c1)c1ccccc12
3	O=C(CCl)N=c1sccn1Cc1ccccc1Cl
4	O=C(CCl)N=c1sccn1Cc1cccc2ccccc12
5	O=C(CCl)N=c1sccn1Cc1ccc(Cl)cc1Cl

Assay by compound | 1 | 2 | 3 | 4 | 5
KDM4E inh | 6.8% | x | -3.7% | -7.2% | 3.7%
G9a block | -22.1% | -29.9%[59 µM] | x | u | u
ALDH1A1 block | -3.8% | x | x | 20µM* | 28.2µM*
Lamin A splicing | -0.6% | x | x | 21.7%[46 µM] | u
miR-21 reporter | -17.3% | 26.1% | u | u | u
Sfp inh | 8.6% | x | -10.2% | -8.7% | -0.3%

6	CS(=O)(=O)c1ccc(Cl)c(NC(=O)CCl)c1
7	CS(=O)(=O)c1ccc(C(=O)Nc2cc(S(C)(=O)=O)ccc2Cl)cc1
8	CS(=O)(=O)c1ccc(C(=O)Nc2ccccc2Cl)cc1
9	CCN(CC)c1ccc(NC(=O)COC(=O)/C=C/c2nc3ccccc3s2)cc1
10	C=CCN(CC=C)C(=O)c1cc2ccccc2c(=O)o1

Assay by compound | 6 | 7 | 8 | 9 | 10
KDM4E inh | -2.3% | 2.3% | 2.0% | 0.4% | -1.4%
G9a block | -39.3% | 44.7µM* | -6.3% | 6.31µM* | -7.4%
ALDH1A1 block | 3.16µM* | 6.1% | 6.8% | u | u
Lamin A splicing | x | -13.0% | x | -13.3% | -2.2%
miR-21 reporter | u | -3.3% | -17.5% | -3.0% | -5.5%
Sfp inh | -14.8% | 0.1% | 9.8% | -9.7% | -1.9%

11	COc1cc(CNC2CCCCCCC2)cc(Cl)c1OC
12	COc1ccccc1CC(=O)Nc1ccc(OC)c(OC)c1
13	COc1cc(C)c(CNc2cccc(C)c2)cc1C
14	COc1cc(C)c(CNc2cc(C)cc(C)c2)cc1C
15	CC(C)NCc1cc(Br)ccc1OCc1ccccc1

Assay by compound | 11 | 12 | 13 | 14 | 15
KDM4E inh | x | 8.2% | -2.0% | 6.3% | 0.7%
G9a block | 0.5% | 32.8%[12.7 µM] | 7.9%[0.501 µM] | u | -36.9%
ALDH1A1 block | x | 13.2% | 14.1µM* | -5.8% | 19.1%
Lamin A splicing | x | -9.3% | 5.3% | -11.8% | 1.1%[46 µM]
miR-21 reporter | 4.1% | -4.8% | -5.6% | -0.8% | -1.4%
Sfp inh | 2.9% | 13.3% | u | 4.0% | 13.6%

16	COc1ccc(Br)cc1CNc1ccccc1
17	COc1cc(C)c(CNc2ccc(OC)c(OC)c2)cc1C
18	COc1cc(C)c(CNC2CCCCC2)cc1C
19	CCc1nnc(SCc2nc(-c3cccc(Cl)c3)oc2C)c2cc3sc(C)cc3n12
20	CCOc1ccc(CCNC(=O)CSc2nc3ccccc3nc2Cc2ccc(C)cc2)cc1OCC

Assay by compound | 16 | 17 | 18 | 19 | 20
KDM4E inh | x | u | -24.9% | x | x
G9a block | 22.4µM* | u | 31.6µM* | -26.8%[59 µM] | u
ALDH1A1 block | x | 25.1µM* | -2.2% | x | x
Lamin A splicing | x | 6.5% | 4.8% | x | x
miR-21 reporter | -21.9% | -15.5% | -1.2% | -16.4% | 19.1%
Sfp inh | u | -8.8% | -13.5% | x | x

21	COc1cc(Cn2nnc3ccccc32)cc(Br)c1O
22	COc1ccc(CNc2ccc(C)c(C)c2)c(OC)c1OC
23	CO[C@@H]1COC(=O)C/C=C\[C@@H](C)[C@H](OC)COC(=O)C/C=C\[C@H]1C
24	CC(C)(C)c1cc[n+](/C(C(=S)NC2CC2)=C(/[O-])c2ccc(Cl)s2)cc1
25	[O-]/C(=C(\C(=S)Nc1cccc2ccccc12)[n+]1ccccc1)c1ccc(Cl)s1

Assay by compound | 21 | 22 | 23 | 24 | 25
KDM4E inh | x | -4.5% | x | -5.5% | 8.3%
G9a block | u | 35.5µM* | x | 10µM* | u
ALDH1A1 block | x | 12.6µM* | 10.9%[13.5 µM] | u | u
Lamin A splicing | x | x | x | 6.9% | -23.0%
miR-21 reporter | -22.4% | -7.2% | x | -12.7% | -4.9%
Sfp inh | 10.5% | 15.6% | 11.4% | 56.2µM* | -28.0%

Looked up above.
Entry for CS(=O)(=O)c1ccc(C(=O)Nc2cc(S(C)(=O)=O)ccc2Cl)cc1 under ALDH1A1 block: 6.1%
Entry for CCc1nnc(SCc2nc(-c3cccc(Cl)c3)oc2C)c2cc3sc(C)cc3n12 under miR-21 reporter: -16.4%

(more compounds)
26	Cc1cc(C)cc(NC(=S)/C(=C(\[O-])c2ccc(Cl)s2)[n+]2cccc(C)c2)c1
27	CCc1cccc(CC)c1NC(=S)/C(=C(\[O-])c1ccc(Cl)s1)[n+]1ccccc1
28	Cc1ccc(C)c(NC(=S)/C(=C(\[O-])c2ccc(Cl)s2)[n+]2ccccc2)c1
29	O=C(Nc1ccc(Cl)cc1)NC1CCCCC1Cc1ccco1 (stereo not drawn)
30	O=C(Nc1ccc(Cl)cc1)NC1CCCC1Cc1ccco1 (stereo not drawn)

Assay by compound | 26 | 27 | 28 | 29 | 30
KDM4E inh | u | 3.5% | -7.6% | -3.8% | -9.2%
G9a block | 44.7µM* | 44.7µM* | u | 0.9% | u
ALDH1A1 block | 25.1µM* | 0.2% | u | 0.0% | 12.6µM*
Lamin A splicing | -23.4%[46 µM] | -13.3%[46 µM] | -0.2%[46 µM] | 2.5% | u
miR-21 reporter | -4.2% | -0.7% | -10.8% | 19.7% | 0.3%
Sfp inh | -20.5% | -15.2% | 50.1µM* | 26.0% | 22.3%

31	CCOC(=O)C1(Cc2cccc(OC)c2)CCCN(CCO)C1 (stereo not drawn)
32	O=C(c1cc(C(F)(F)F)cc(C(F)(F)F)c1)N1CCC[C@@]2(CCN(c3ccccc3)C2)C1
33	CNc1ccc(Br)cc(C(=O)/C=C/c2cccc(OC)c2OC)c1=O
34	CNc1ccccc(C(=O)/C=C/c2ccccc2OC)c1=O
35	COc1cccc(/C=C/C(=O)c2ccc3c(c2)OCO3)c1OC

Assay by compound | 31 | 32 | 33 | 34 | 35
KDM4E inh | x | x | 28.2µM* | u | x
G9a block | x | -7.6%[12.7 µM] | 8.91µM* | 4.47µM* | -2.4%[12.7 µM]
ALDH1A1 block | x | -6.1% | 15.8µM* | 10µM* | x
Lamin A splicing | x | x | u | 5.6% | x
miR-21 reporter | -0.2% | x | -11.1% | -2.1% | x
Sfp inh | 4.3% | 21.4% | 12.6µM* | 31.6µM* | x

36	CNc1ccc(Br)cc(C(=O)/C=C/c2cccc(Cl)c2Cl)c1=O
37	Cc1ccc[n+](CC(=O)Nc2ccc(C)c(C)c2)c1
38	COc1ccc(CCNc2ccc(N3C(=O)CC(C)C3=O)cc2[N+](=O)[O-])cc1 (stereo not drawn)
39	COc1ccc(CCNc2ccc(N3C(=O)CC(C)C3=O)cc2[N+](=O)[O-])cc1OC (stereo not drawn)
40	O=C1C2CC=CCC2C(=O)N1c1ccc(NCCc2ccc(O)cc2)c([N+](=O)[O-])c1 (stereo not drawn)

Assay by compound | 36 | 37 | 38 | 39 | 40
KDM4E inh | -2.0% | x | -0.4% | 1.2% | -4.6%
G9a block | 28.2µM* | x | -14.5% | 31.6µM* | 39.8µM*
ALDH1A1 block | u | x | u | u | u
Lamin A splicing | u | x | x | x | u
miR-21 reporter | -5.7% | 2.8% | -0.5% | 20.8% | -0.3%
Sfp inh | 22.4µM* | 2.1% | 15.4% | 4.6% | -4.4%

41	O=C1C2CC=CCC2C(=O)N1c1ccc(NCCc2ccc(Cl)cc2)c([N+](=O)[O-])c1 (stereo not drawn)
42	O=C1C2CC=CCC2C(=O)N1c1ccc(NCCc2cccc(F)c2)c([N+](=O)[O-])c1 (stereo not drawn)
43	O=C1CCC(=O)N1c1ccc(NCCc2cccc(F)c2)c([N+](=O)[O-])c1
44	COCCNc1ccc(N2C(=O)C3CCCCC3C2=O)cc1[N+](=O)[O-] (stereo not drawn)
45	CCN1CCN(C(c2ccc(F)cc2)c2c(O)cc(C)n(CCOC)c2=O)CC1 (stereo not drawn)
46	COc1cccc(N2CCN(C(=S)NCCc3ccccc3)CC2)c1
47	O=C(NC1CCN(C(=S)NCCc2ccccc2)CC1)C1CC1

Assay by compound | 41 | 42 | 43 | 44 | 45 | 46 | 47
KDM4E inh | -4.2% | -10.6% | 2.4% | -4.0% | x | 8.3% | -2.7%
G9a block | 35.5µM* | 44.7µM* | -0.6% | u | u | -3.3% | 10µM*
ALDH1A1 block | -13.1% | -6.5% | 8.0% | -3.2% | x | -3.9% | 1.2%
Lamin A splicing | u | 2.8% | 15.9%[46 µM] | -1.6%[46 µM] | u | -21.7% | 16.4%[46 µM]
miR-21 reporter | -5.6% | 0.6% | -3.4% | 3.6% | 0.9% | -6.1% | 1.6%
Sfp inh | 2.3% | -14.8% | 9.8% | 21.6% | x | 12.2% | u

3 compounds from above, sorted by SMILES length, largest number first:
41	O=C1C2CC=CCC2C(=O)N1c1ccc(NCCc2ccc(Cl)cc2)c([N+](=O)[O-])c1 (stereo not drawn)
43	O=C1CCC(=O)N1c1ccc(NCCc2cccc(F)c2)c([N+](=O)[O-])c1
45	CCN1CCN(C(c2ccc(F)cc2)c2c(O)cc(C)n(CCOC)c2=O)CC1 (stereo not drawn)

Assay by compound | 41 | 43 | 45
KDM4E inh | -4.2% | 2.4% | x
G9a block | 35.5µM* | -0.6% | u
ALDH1A1 block | -13.1% | 8.0% | x
Lamin A splicing | u | 15.9%[46 µM] | u
miR-21 reporter | -5.6% | -3.4% | 0.9%
Sfp inh | 2.3% | 9.8% | x
